Assay: Effect of co-administered triphenylethylenes on clopidogrel metabolism in vivo (CLP*-acetamide by LC-MS)
Set-up: species or system Sprague-Dawley rats
Conditions: oral gavage
Procedure: Adult male Sprague-Dawley rats are dosed with various triphenylethylenes at different doses from 0.1 mg/kg to 10 mg/kg (spanning the likely doses such compounds would be used in man), or with vehicle only, and simultaneously dosed with 10 mg/kg clopidogrel, both by oral gavage. Blood samples are drawn through an in-dwelling jugular catheter at 0.5, 1, 2, 4, 8 and 24 hrs post-dose, and serum is prepared by conventional methods well known in the art.
The level of CLP*, the active metabolite of clopidogrel is then determined in each blood sample by LC-MS by collecting the blood samples in tubes containing the thiol alkylating agent iodeoacetamide. Iodoacetamide reacts with CLP* to generate a stable product which can be detected by LC-MS using standard methodology well known in the art. An authentic sample of the acetamide adduct of CLP* is used to quantify the level of CLP*-acetamide in the sample. […] The concentration of CLP*-acetamide adduct can therefore be assumed to be proportional to the concentration of CLP*. The pharmacokinetics of CLP*-acetamide are then compared under the different conditions, using standard pharmacokinetics models implemented with WinNonLin.

With `CN(C)CCOc1ccc(/C(=C(/CCCl)c2ccccc2)c2ccccc2)cc1` [Toremifene] the “% inhibition of CLP*-acetamide Cmax compared to vehicle control” value (“% inhibition of CLP*-acetamide Cmax” for short) (analog 0.1 mg/kg with 10 mg/kg clopidogrel) was 11%, the “% inhibition of CLP*-acetamide Cmax” value (analog 1 mg/kg with 10 mg/kg clopidogrel) was 48% and the “% inhibition of CLP*-acetamide Cmax” value (analog 10 mg/kg with 10 mg/kg clopidogrel) was 77%.
